Results taken from patent US20090099157A1, “TETRAHYDRO-PYRAZOLO-PYRIDINE THIOETHER MODULATORS OF CATHEPSIN S” (priority 2007, published 2009).

By UniProt entry, the sequences of proteins in these tests, tags left out. Residues count along the entry.
UniProt P25774, 115-331: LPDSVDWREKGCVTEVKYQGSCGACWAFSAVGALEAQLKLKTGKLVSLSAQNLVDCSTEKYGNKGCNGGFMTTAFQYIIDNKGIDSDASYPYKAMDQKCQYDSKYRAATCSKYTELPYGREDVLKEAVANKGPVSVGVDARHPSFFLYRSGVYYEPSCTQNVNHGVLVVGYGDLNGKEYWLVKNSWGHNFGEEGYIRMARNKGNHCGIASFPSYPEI

Biological target: Recombinant human cathepsin S (CatS) (Homo sapiens, UniProt P25774)
Experiment: biochemical

Row | IC50 [nM] | SMILES
1 | 150 | CC1CCN(CC(O)Cn2nc(-c3ccc(C(F)(F)F)c(SCCN4CCC(F)(F)C4)c3)c3c2CCN(S(C)(=O)=O)C3)CC1 (stereo not shown) [Example 501, 1-{3-[3-{[2-(3,3-Difluoropyrrolidin-1-yl)ethyl]sulfanyl}-4-(trifluoromethyl)phenyl]-5-(methylsulfonyl)-4,5,6,7-tetrahydro-1H-pyrazolo[4,3-c]pyridin-1-yl}-3-(4-methylpiperidin-1-yl)propan-2-ol]
2 | 30 | CN(C)c1ccc2c(n1)n(C1CCN(CC(O)Cn3nc(-c4ccc(C(F)(F)F)c(SCCN5CCOCC5)c4)c4c3CCN(S(C)(=O)=O)C4)CC1)c(=O)n2C (stereo not shown) [Example 180, 5-(Dimethylamino)-3-(1-{2-hydroxy-3-[5-(methylsulfonyl)-3-{3-[(2-morpholin-4-ylethyl)sulfanyl]-4-(trifluoromethyl)phenyl}-4,5,6,7-tetrahydro-1H-pyrazolo[4,3-c]pyridin-1-yl]propyl}piperidin-4-yl)-1-methyl-1,3-dihydro-2H-imidazo[4,5-b]pyridin-2-one]
3 | 380 | CS(=O)(=O)N1CCc2c(c(-c3ccc(C(F)(F)F)c(SCCNC(=O)c4ccccc4)c3)nn2CC(O)CN2CCC(N3CCCC3=O)CC2)C1 (stereo not shown) [Example 114, N-{2-[5-(1-{2-Hydroxy-3-[4-(2-oxo-pyrrolidin-1-yl)-piperidin-1-yl]-propyl}-5-methanesulfonyl-4,5,6,7-tetrahydro-1H-pyrazolo[4,3-c]pyridin-3-yl)-2-trifluoromethyl-phenylsulfanyl]-ethyl}-benzamide]
4 | 330 | CS(=O)(=O)N1CCc2c(c(-c3ccc(C(F)(F)F)c(SCCN4CC[C@H](F)C4)c3)nn2C[C@@H](O)CN2CCC(NC(=O)CO)CC2)C1 [Example 658, N-{1-[(2S)-3-{3-[3-({2-[(3S)-3-Fluoropyrrolidin-1-yl]ethyl}sulfanyl)-4-(trifluoromethyl)phenyl]-5-(methylsulfonyl)-4,5,6,7-tetrahydro-1H-pyrazolo[4,3-c]pyridin-1-yl}-2-hydroxypropyl]piperidin-4-yl}-2-hydroxyacetamide]
5 | 15 | CS(=O)(=O)N1CCc2c(c(-c3ccc(C(F)(F)F)c(SCCN4CCC(F)CC4)c3)nn2C[C@H](O)CN2CCC(c3ccccn3)CC2)C1 [Example 734, (2R)-1-{3-[3-{[2-(4-Fluoropiperidin-1-yl)ethyl]sulfanyl}-4-(trifluoromethyl)phenyl]-5-(methylsulfonyl)-4,5,6,7-tetrahydro-1H-pyrazolo[4,3-c]pyridin-1-yl}-3-(4-pyridin-2-ylpiperidin-1-yl)propan-2-ol]
6 | 800 | CNCCSc1cc(-c2nn(CCCN3CCC(N4CCCC4=O)CC3)c3c2CN(S(C)(=O)=O)CC3)ccc1C(F)(F)F [Example 30, 1-[1-(3-{5-Methanesulfonyl-3-[3-(2-methylamino-ethylsulfanyl)-4-trifluoromethyl-phenyl]-4,5,6,7-tetrahydro-pyrazolo[4,3-c]pyridin-1-yl}-propyl)-piperidin-4-yl]-pyrrolidin-2-one]
7 | 320 | CC(C)(C)OC(=O)N1CCC(CC(=O)N2CCc3c(c(-c4ccc(C(F)(F)F)c(SCCN5CCC(F)CC5)c4)nn3CC(O)CN3CCCCC3)C2)CC1 (stereo not shown) [Example 886, 1,1-Dimethylethyl 4-(2-{3-[3-{[2-(4-fluoropiperidin-1-yl)ethyl]sulfanyl}-4-(trifluoromethyl)phenyl]-1-(2-hydroxy-3-piperidin-1-ylpropyl)-1,4,6,7-tetrahydro-5H-pyrazolo[4,3-c]pyridin-5-yl}-2-oxoethyl)piperidine-1-carboxylate]
8 | 300 | CCCS(=O)(=O)N1CCc2c(c(-c3ccc(C(F)(F)F)c(SCCN4CCC(F)CC4)c3)nn2C[C@@H](O)CN2CCCCC2)C1 [Example 557, (2S)-1-{3-[3-{[2-(4-Fluoropiperidin-1-yl)ethyl]sulfanyl}-4-(trifluoromethyl)phenyl]-5-(propylsulfonyl)-4,5,6,7-tetrahydro-1H-pyrazolo[4,3-c]pyridin-1-yl}-3-piperidin-1-ylpropan-2-ol]
9 | 60 | CS(=O)(=O)N1CCc2c(c(-c3ccc(C(F)(F)F)c(SCC(=O)N4CCCC4)c3)nn2CCCN2CCC(N3CCCC3=O)CC2)C1 [Example 92, 1-[1-(3-{5-Methanesulfonyl-3-[3-(2-oxo-2-pyrrolidin-1-yl-ethylsulfanyl)-4-trifluoromethyl-phenyl]-4,5,6,7-tetrahydro-pyrazolo[4,3-c]pyridin-1-yl}-propyl)-piperidin-4-yl]-pyrrolidin-2-one]
10 | 590 | CN(C)C1CCN(C[C@H](O)Cn2nc(-c3ccc(C(F)(F)F)c(SCCN4CCC(F)CC4)c3)c3c2CCN(S(C)(=O)=O)C3)CC1 [Example 607, (2S)-1-[4-(Dimethylamino)piperidin-1-yl]-3-{3-[3-{[2-(4-fluoropiperidin-1-yl)ethyl]sulfanyl}-4-(trifluoromethyl)phenyl]-5-(methylsulfonyl)-4,5,6,7-tetrahydro-1H-pyrazolo[4,3-c]pyridin-1-yl}propan-2-ol]
11 | 170 | CS(=O)(=O)N1CCc2c(c(-c3ccc(C(F)(F)F)c(SCCN4CCCCC4)c3)nn2CC(O)CN2CCCCC2)C1 (stereo not shown) [Example 153, 1-[5-(Methylsulfonyl)-3-{3-[(2-piperidin-1-ylethyl)sulfanyl]-4-(trifluoromethyl)phenyl}-4,5,6,7-tetrahydro-1H-pyrazolo[4,3-c]pyridin-1-yl]-3-piperidin-1-ylpropan-2-ol]
12 | 240 | CS(=O)(=O)N1CCc2c(c(-c3ccc(C(F)(F)F)c(SCCN4CCC(C(N)=O)CC4)c3)nn2CCCN2CCC(N3CCCC3=O)CC2)C1 [Example 36, 1-{2-[5-(5-Methanesulfonyl-1-{3-[4-(2-oxo-pyrrolidin-1-yl)-piperidin-1-yl]-propyl}-4,5,6,7-tetrahydro-1H-pyrazolo[4,3-c]pyridin-3-yl)-2-trifluoromethyl-phenylsulfanyl]-ethyl}-piperidine-4-carboxylic acid amide]
13 | 1130 | OC(CN1CCN(c2ccc(F)cc2)CC1)Cn1nc(-c2ccc(C(F)(F)F)c(SCCN3CCC(F)(F)C3)c2)c2c1CCNC2 (stereo not shown) [Example 521, 1-{3-[3-{[2-(3,3-Difluoropyrrolidin-1-yl)ethyl]sulfanyl}-4-(trifluoromethyl)phenyl]-4,5,6,7-tetrahydro-1H-pyrazolo[4,3-c]pyridin-1-yl}-3-[4-(4-fluorophenyl)piperazin-1-yl]propan-2-ol]
14 | 1160 | CCOc1ccccc1N1CCN(CC(O)Cn2nc(-c3ccc(C(F)(F)F)c(SCCN4CCC(F)(F)C4)c3)c3c2CCNC3)CC1 (stereo not shown) [Example 629, 1-{3-[3-{[2-(3,3-Difluoropyrrolidin-1-yl)ethyl]sulfanyl}-4-(trifluoromethyl)phenyl]-4,5,6,7-tetrahydro-1H-pyrazolo[4,3-c]pyridin-1-yl}-3-{4-[2-(ethyloxy)phenyl]piperazin-1-yl}propan-2-ol]
15 | 320 | CC(=O)N1CCN(CCCn2nc(-c3ccc(C(F)(F)F)c(SCC(=O)N4CCOCC4)c3)c3c2CCN(S(C)(=O)=O)C3)CC1 [Example 112, 2-(5-{1-[3-(4-Acetyl-piperazin-1-yl)-propyl]-5-methanesulfonyl-4,5,6,7-tetrahydro-1H-pyrazolo[4,3-c]pyridin-3-yl}-2-trifluoromethyl-phenylsulfanyl)-1-morpholin-4-yl-ethanone]
16 | 220 | CS(=O)(=O)N1CCc2c(c(-c3ccc(C(F)(F)F)c(SCC(=O)N4CC[C@H](O)C4)c3)nn2CC(O)CN2CCCCC2)C1 (stereo partly drawn) [Example 389, (3S)-1-[({5-[1-(2-Hydroxy-3-piperidin-1-ylpropyl)-5-(methylsulfonyl)-4,5,6,7-tetrahydro-1H-pyrazolo[4,3-c]pyridin-3-yl]-2-(trifluoromethyl)phenyl}sulfanyl)acetyl]pyrrolidin-3-ol]
17 | 360 | CS(=O)(=O)N1CCc2c(c(-c3ccc(C(F)(F)F)c(SCCNC4CCCC4)c3)nn2CC(O)CN2CCCC2)C1 (stereo not shown) [Example 325, 1-{3-[3-{[2-(Cyclopentylamino)ethyl]sulfanyl}-4-(trifluoromethyl)phenyl]-5-(methylsulfonyl)-4,5,6,7-tetrahydro-1H-pyrazolo[4,3-c]pyridin-1-yl}-3-pyrrolidin-1-ylpropan-2-ol]
18 | 1110 | CC(=O)N1CCN(CC(O)Cn2nc(-c3ccc(C(F)(F)F)c(SCCN4CCCC4)c3)c3c2CCN(S(C)(=O)=O)C3)CC1 (stereo not shown) [Example 449, 1-(4-Acetylpiperazin-1-yl)-3-[5-(methylsulfonyl)-3-{3-[(2-pyrrolidin-1-ylethyl)sulfanyl]-4-(trifluoromethyl)phenyl}-4,5,6,7-tetrahydro-1H-pyrazolo[4,3-c]pyridin-1-yl]propan-2-ol]
19 | 20 | O=C1CCCN1C1CCN(CC(O)Cn2nc(-c3ccc(C(F)(F)F)c(SCCN4CCCCC4)c3)c3c2CCN(S(=O)(=O)c2ccccc2)C3)CC1 (stereo not shown) [Example 234, 1-(1-{2-Hydroxy-3-[5-(phenylsulfonyl)-3-{3-[(2-piperidin-1-ylethyl)sulfanyl]-4-(trifluoromethyl)phenyl}-4,5,6,7-tetrahydro-1H-pyrazolo[4,3-c]pyridin-1-yl]propyl}piperidin-4-yl)pyrrolidin-2-one]
20 | 610 | O=C(C1CCC1)N1CCc2c(c(-c3ccc(C(F)(F)F)c(SCCN4CCC(F)CC4)c3)nn2C[C@@H](O)CN2CCCCC2)C1 [Example 424, (2S)-1-{5-(Cyclobutylcarbonyl)-3-[3-{[2-(4-fluoropiperidin-1-yl)ethyl]sulfanyl}-4-(trifluoromethyl)phenyl]-4,5,6,7-tetrahydro-1H-pyrazolo[4,3-c]pyridin-1-yl}-3-piperidin-1-ylpropan-2-ol]
21 | 70 | CS(=O)(=O)N1CCc2c(c(-c3ccc(C(F)(F)F)c(SCCN4CCCC(CO)C4)c3)nn2CC(O)CN2CCC(c3ccncc3)CC2)C1 (stereo not shown) [Example 775, 1-{3-[3-({2-[3-(Hydroxymethyl)piperidin-1-yl]ethyl}sulfanyl)-4-(trifluoromethyl)phenyl]-5-(methylsulfonyl)-4,5,6,7-tetrahydro-1H-pyrazolo[4,3-c]pyridin-1-yl}-3-(4-pyridin-4-ylpiperidin-1-yl)propan-2-ol]
22 | 340 | CC(=O)N1CCN(CC(O)Cn2nc(-c3ccc(C(F)(F)F)c(SCCN4CCCCC4)c3)c3c2CCN(S(C)(=O)=O)C3)CC1 (stereo not shown) [Example 543, 1-(4-Acetylpiperazin-1-yl)-3-[5-(methylsulfonyl)-3-{3-[(2-piperidin-1-ylethyl)sulfanyl]-4-(trifluoromethyl)phenyl}-4,5,6,7-tetrahydro-1H-pyrazolo[4,3-c]pyridin-1-yl]propan-2-ol]
